Consider six sequences from US11548923B2, “Peptide compositions and methods of use thereof for disrupting TEAD interactions” (Fred Hutchinson Cancer Center, priority 2017, dated 2023).

By UniProt entry, the sequences of proteins in these tests, tags left out. Residues count along the entry.
UniProt P28347, 209-426: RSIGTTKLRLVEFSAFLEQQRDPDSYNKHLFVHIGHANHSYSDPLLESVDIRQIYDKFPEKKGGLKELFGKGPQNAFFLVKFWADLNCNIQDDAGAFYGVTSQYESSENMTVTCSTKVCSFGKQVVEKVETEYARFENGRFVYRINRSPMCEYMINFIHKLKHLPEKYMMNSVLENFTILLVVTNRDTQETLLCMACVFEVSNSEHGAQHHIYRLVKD

In general, Kd refers to the free concentration of one partner at which half of the binding sites on the other are occupied at equilibrium, for simple one-to-one binding.

The nature of series [1]: Peptide stability in reducing conditions (HPLC). The format is physicochemical.
The nature of series [2]: SYPRO Orange thermal shift (melting) assay. The format is physicochemical. The conditions noted are these: heating from 20° C. to 95° C. On the procedure:
Thermal Shift Assay. Protein melting temperature (Tm) determination can be performed by monitoring protein unfolding using SYPRO Orange dye (Molecular Probes). In brief, 0.1 mg/mL protein sample in 20 μL total volume PBS buffer can be mixed with 2 μL of 10×SYPRO Orange dye. Dye intercalation into the hydrophobic protein core following protein unfolding was assayed using the C1000 Touch Thermal Cycler with CFX96 Deep Well Real-Time System (BioRad). Samples were heated from 20° C. to 95° C. with stepwise increments of 0.5° C. per minute and a 5 see hold step for every point, followed by fluorescence reading. Tm were calculated by analyzing the derivatives of Relative florescence Units (RFU).
Protein secondary structures were assessed using Circular Dichroism (CD). CD spectra were measured with a Jasco J-720W spectropolarimeter using a 1.0 mm path length cell. Protein samples in 10 mM phosphate buffer (pH=7.4) were at 25-30 μM protein concentration. Samples were analyzed at wavelength ranges of 260-190 nM. Data were expressed in terms of relative ellipticity; (mdeg). To determine thermal stability of proteins, samples were subjected to incremental increase in temperature at a ramp of 2° C./min from 20° C. to 95° C. […] Data are expressed in terms of relative ellipticity, reported in mdeg. For SEQ ID NO: 9 and its point mutant variants, no changes to the α-helix-dominated structure were observed upon heating up to 95° C. […] Additionally, protein melting temperature (Tm) determination was performed by monitoring protein unfolding using SYPRO Orange dye (Molecular Probes). In brief, 0.1 mg/mL protein sample in 20 μL total volume PBS buffer were mixed with 2 μL of 10×SYPRO Orange dye. […] Samples were heated from 20° C. to 95° C. with stepwise increments of 0.5° C. per minute and a 5 sec hold step for every point, followed by fluorescence reading. Tm was calculated by analyzing the derivatives of Relative florescence Units (RFU). […]

Series [3] is described as follows: Circular dichroism thermal stability. The format is physicochemical. To be noted: heating from 20° C. to 95° C. On the procedure:
Circular Dichroism. Protein secondary structures can be assessed using Circular Dichroism (CD). CD spectra can be measured with a Jasco J-720W spectropolarimeter using a 1.0 mm path length cell. Protein samples in 10 mM phosphate buffer (pH=7.4) can be at 25-30 uM protein concentration. Samples can be analyzed at wavelength ranges of 260-190 nM. Data can be expressed in terms of relative ellipticity [θ]; (mdeg). To determine thermal stability of proteins, samples can be subjected to incremental increase in temperature at a ramp of 2° C./min from 20° C. to 95° C. […] Data can be expressed in terms of relative ellipticity [θ], reported in mdeg.
Protein secondary structures were assessed using Circular Dichroism (CD). CD spectra were measured with a Jasco J-720W spectropolarimeter using a 1.0 mm path length cell. Protein samples in 10 mM phosphate buffer (pH=7.4) were at 25-30 μM protein concentration. Samples were analyzed at wavelength ranges of 260-190 nM. Data were expressed in terms of relative ellipticity; (mdeg). To determine thermal stability of proteins, samples were subjected to incremental increase in temperature at a ramp of 2° C./min from 20° C. to 95° C. […] Data are expressed in terms of relative ellipticity, reported in mdeg. For SEQ ID NO: 9 and its point mutant variants, no changes to the α-helix-dominated structure were observed upon heating up to 95° C. […] Additionally, protein melting temperature (Tm) determination was performed by monitoring protein unfolding using SYPRO Orange dye (Molecular Probes). In brief, 0.1 mg/mL protein sample in 20 μL total volume PBS buffer were mixed with 2 μL of 10×SYPRO Orange dye. Dye intercalation into the hydrophobic protein core following protein unfolding was assayed using the C1000 Touch Thermal Cycler with CFX96 Deep Well Real-Time System (BioRad). Samples were heated from 20° C. to 95° C. with stepwise increments of 0.5° C. per minute and a 5 sec hold step for every point, followed by fluorescence reading. Tm was calculated by analyzing the derivatives of Relative florescence Units (RFU). […]
In general terms: CD spectra are sensitive to the conformation of chiral molecules.

For series [4], the target named is T1, biotinylated TEAD (Homo sapiens, UniProt P28347).
T1 construct: soluble TEAD (194-411) was produced with two C-terminal tags; GST; made in house; host or cells: Hi5 insect cells (baculovirus, BacMagic, pIEX-BAC3)
Nature of the series: Surface plasmon resonance (SPR) binding of soluble peptides to captured biotinylated TEAD. To be noted: biotinylated TEAD immobilized on an SPR chip, read-out: dissociation constant (KD). For orientation: Surface plasmon resonance follows binding to a sensor surface in real time, without labels.

In series [5] the test system is HeLa cells. The series is described as follows: Cytosolic delivery of DyLight 488 labelled peptide with dfTAT (microscopy). To be noted: DyLight 488 conjugate, co-incubation with 5 μM dfTAT. The format is cell-based. The source says: Cytosolic Peptide Expression. Peptides, FLAG-tagged or not, can be cloned into a mammalian expression vector consisting of a CMV promoter, then a monocistronic mCherry-T2a-peptide sequence. These can be transfected, along with (where indicated) pFLAG-YAP1 and 8×GTIIC-luciferase (Addgene plasmid #34615) into 293T cells. 24 hrs post-transfection, cells can be either harvested for luminescence (ONE-Glo, Promega) or Western blot (anti-FLAG M2, Sigma). Protein Transfection with dfTAT Reagent. Solution was diluted to 50 μM in PBS for a 10× working stock, for a final concentration of 5 μM in culture wells. Peptides as disclosed herein can be fluoresceinated with DyLight 488 NHS-ester (ThermoFisher), with final dye:peptide labeling ratios between 0.8 and 1.4 as assessed by A280 and A488 on a Nanodrop spectrometer (Thermo Scientific). For confirmation of peptide cell penetration, 293T and HeLa cells can be plated in a 96-well plate in DMEM with 10% FBS, 1× penicillin/streptomycin (Pen/Strep) and grown overnight to ˜50% confluence. […]
For example, SEQ ID NO: 9 was co-administered with dfTAT, a small dimeric peptide that facilitates endosomal escape of cargoes up to 150 kDa without noticeable effects on viability or gene expression profiles. […] All P-values were determined by two-tailed T-test.

The test system of series [6] is trypsin or chymotrypsin. Nature of the series: SDPR surface display protease resistance test (anti-6×His staining). The conditions noted are these: up to 40 μg/ml trypsin or chymotrypsin, 20 minutes.

As to “GSPDEYIERAKECCKKGDIQCCLRYFEESGDPNVMLICLFCP [SEQ ID NO: 1]”, in series [1] (10 mM GSH), the “resistance to reduction by HPLC” value is on record as “resistant to GSH reducing conditions”.
For the sequence “GSPDEYIERAKECCKKQDIQCCLRIFDESGDPNVMLICLFCW [SEQ ID NO: 10]”, the melting temperature entry in series [2] is “no melting temperature could be determined”. The “secondary structure signature (CD spectra) before and after incubation at 95° C” value (“secondary structure signature” for short) in series [3] was “identical”.
In the case of “GSPDEYIERAKECCKKGDIQCCLRYFEESGDPNVMLICAFCP [SEQ ID NO: 5]”, the Kd in series [4] turned out to be 0.28 µM.
Take “GSPDEYIERAKECCKKGDIQCCLRYFEESGDPNVMLICLACP [SEQ ID NO: 7]”: the dissociation constant Kd in series [4] is 23 µM.
“GSPDEYIERAKECCKKQDIQCCLRIFDESKDPNVMLICLFCP [SEQ ID NO: 11]”: in series [2], the melting temperature result is given as “no melting temperature could be determined”. In series [3], the “secondary structure signature” value was “identical”.
Consider “GSPDEYIERAKECCKKQDIQCCLRIFDESKDPNVMLICLFCW [SEQ ID NO: 9]”, for which the “resistance to reduction by HPLC” value was “partially resistant to DTT reduction” in series [1] (10 mM DTT) and “resistant to GSH reducing conditions” in series [1] (10 mM GSH). For the same sequence, the melting temperature entry in series [2] is recorded as “no melting temperature could be determined”. Besides, the “secondary structure signature” value in series [3] was “identical”. The “accumulation of peptide in cells” value in series [5] is reported as “accumulation of SEQ ID NO: 9 in cells in a disperse pattern”. The “protease resistance (anti-6×His staining after protease treatment)” value in series [6] is “partially resistant to cleavage by proteases”.
